# Values of other authors in patent publication US20220183963A1, “IMPLANTABLE DEPOTS FOR THE LOCALIZED, SUSTAINED, CONTROLLED RELEASE OF THERAPEUTIC AGENTS TO TREAT CANCER AND RELATED SYMPTOMS AND CONDITIONS” (Foundry Therapeutics, Inc., priority 2019, published 2022).
# Details: PVP electrospun nanofiber and 2.5 wt % Tween 20
substance,measurement,value
maraviroc,time to complete release of 28 wt % maraviroc,six minutes
